System: A549 cells
Conditions: 15 μM CyPPS26, A549 cells, LysoTracker, 1.5 hours, confocal microscopy

In the case of “TXFFRA [CyPPS26, TXFFRA [SEQ ID NO: 26]]”, the “cell permeability and mechanism of cell uptake” value is reported as “Endosomal uptake was confirmed”.

Reference: patent US20250073302A1, “CYCLIC PEPTIDES AS PROTEASOME STIMULATORS” (Purdue Research Foundation, priority 2023, published 2025)
